This is an account of results in ChEMBL document CHEMBL3217618, “The use of phosphate bioisosteres in medicinal chemistry and chemical biology” (Medchemcomm, 2012).

Sequences of proteins named here, by UniProt entry; tags and fusion partners are left off.
UniProt Q9Y303, whole entry, looked up: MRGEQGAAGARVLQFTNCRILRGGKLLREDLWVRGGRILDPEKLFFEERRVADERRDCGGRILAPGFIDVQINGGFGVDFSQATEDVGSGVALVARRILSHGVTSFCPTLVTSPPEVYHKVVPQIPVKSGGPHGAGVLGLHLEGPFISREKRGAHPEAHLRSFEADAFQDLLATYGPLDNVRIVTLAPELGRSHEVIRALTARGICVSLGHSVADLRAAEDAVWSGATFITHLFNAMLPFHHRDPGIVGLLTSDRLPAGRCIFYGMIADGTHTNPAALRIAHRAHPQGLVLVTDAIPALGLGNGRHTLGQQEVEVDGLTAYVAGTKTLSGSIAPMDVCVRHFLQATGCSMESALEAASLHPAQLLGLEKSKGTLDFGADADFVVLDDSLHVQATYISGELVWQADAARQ

Each structure is given as a SMILES string.

Assay [1] deals with N-acetylglucosamine-6-phosphate deacetylase (Homo sapiens, UniProt Q9Y303). Description: Inhibition of NagA (unknown origin).
The nature of assay [2]: Inhibition of DGD (unknown origin).

With `CP(=O)(O)N[C@@H]1[C@@H](O)[C@H](O)[C@@H](COP(=O)(O)O)O[C@H]1O`, in assay [1], affinity was put at a Ki of 34 nM. In other words, the double-digit nanomolar range.
With `CP(=O)(O)N[C@H](CCC(=O)O)C(=O)O`, the Ki (usually the equilibrium dissociation constant of an inhibitor or competing ligand from its target) in assay [2] was 0.46 nM.
